Measured values from paper PMC8289286, “In Silico, In Vitro, and In Vivo Evaluation of Precipitation Inhibitors in Supersaturated Lipid-Based Formulations of Venetoclax” (Molecular Pharmaceutics, 2021).

Assay: In vitro PI testing by solvent shift in FaSSIF
Type: physicochemical
Description: The in vitro PI testing for venetoclax was done by means of a solvent shift. The effect of a fully hydrated PI (dissolved in FaSSIF) was compared against the PI in the formulation. Thus, the employed PIs HPMC, HPMCAS, Eudragit EPO, PVP, PVP/VA, and Pluronic F108 were dissolved in either FaSSIF or either suspended or dissolved in the sLBF. […] The vials were sealed and placed in a water bath shaker at 200 shakes/min and 37 °C (GLS400, Grant Instruments, UK). […] The samples were filtered with a 0.2 μm syringe filter (Whatman Spartan 13/0.2) and samples that contained lipids were additionally centrifuged for 30 min at 21,380g and 37 °C (Mikro 200 R, Hettich GmbH, Germany). […] A pure (nondiluted) and a diluted sample were analyzed by HPLC as described above. Additionally, the solubility of venetoclax was determined in FaSSIF with dissolved PI.

**Q.** With “hydroxypropyl methylcellulose acetate succinate [HPMCAS]” as the substance, how does the “solubilized venetoclax, sLBF-PI” value read?
**A.** The value was 5.1 ± 0.2%.

**Q.** And the “solubilized venetoclax, sLBF-aqPI” value?
**A.** The value was 0.5 ± 0.02%.
